# Source: PubChem
# Compounds with a hit are over-represented: about 1.5% of the library has one in this group of screens.
# Yeast UUG start – yeast start codon fidelity modulation; actives 0.13% (n = 350,000); activity score, % at 18.7 µM; S. cerevisiae UUG-firefly luciferase reporter, luminescence/redox ratio;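 active = replicate mean at a twofold rise or more, about +100% in these data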;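 note: firefly luciferase made from a UUG start codon reports start codon fidelity; reporter light over untreated wells divided by growth signal over untreated wells; some hits fall short of that in this replicate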
# HIV Env fusion – inhibitors of HIV Env-mediated cell fusion. HeLa-JRFL Env/CEM21 cell fusion, luciferase. inhibition, % at 12.3 µM. 1.1% of 360,000 active. AID 651610;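 active means mean replicate inhibition score of at least 50 and every replicate individually at or above 50; inconclusive means only one of the two criteria met; inactive means mean below 50 and not all replicates reaching 50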;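 further: 0% = plate neutral controls and 100% = maraviroc near 300 nM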
# miR122 inh – inhibitors of miR-122 in Huh7 cells; Huh7 miR-122 Renilla luciferase sensor, 48 h; neutral wells = 0, positive control = 100; activation (reporter increase), % at 12.5 µM; 0.3% of 340,000 active; AID 602342;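 active means mean replicate activation score at least 90 and every replicate individually at or above 90; inconclusive means only one of the two criteria met; inactive means neither criterion met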;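 further: higher luciferase means less miR-122 activity so hits act as miR-122 inhibitors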
# PGC1a acetyl inh – modulators of PGC1a acetylation | U2OS PGC1a acetylation, AlphaScreen anti-acetyl-lysine; with virally co-expressed GCN5 acetyltransferase | inhibition, % at 15.6 µM | 0.17% of 350,000 active;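 active means every replicate shows inhibition of at least 40%; inconclusive means mean inhibition at least 40% but some replicate below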;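 further: 0% = neutral control wells and 100% = positive control wells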
# FN deposit inh – fibronectin deposition inhibition; AH1F fibroblasts, Alexa488-fibronectin deposition fluorescence, overnight; inhibition, % at 12.6 µM; 0.086% of 350,000 active; AID 743247;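 active means mean inhibition across replicates of 30% or more, regardless of how many single replicates reach that level; inconclusive means mean under 30% yet at least half of replicates reach 30%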;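 further: positive control wells lacked labelled fibronectin entirely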
#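 material = AH1F fibroblast monolayer depositing Alexa488-labelled fibronectin into matrix | amount = 10000 AH1F cells/well | buffer or medium = DMEM plus 2% serum, read in PBS | incubation = 1 h cell adhesion before compound, then overnight fibronectin incubation | detection = fluorescence at 485 nm excitation, 525 nm emission | evaluation = percent inhibition as loss of matrix-bound fibronectin fluorescence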
# Cneo AK release – causes C. neoformans cell lysis | AID 651654 | adenylate kinase release luminescence, 4 h; normalised: neutral wells 0, clomiphene wells 100 | lysis activity, % at 15 µM | 0.2% of 360,000 active;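 active means mean lysis activity across replicates of at least 80%, whatever share of replicates individually reach that level; inactive means mean lysis activity below 80%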
#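 Material – Cryptococcus neoformans yeast cells · Quantity – 5 × 10^6 yeast cells/mL · Buffer or medium – YPD medium · Compound – single dose · Timing – 4 h static compound exposure, 37 °C, read 1 h post-reagent · Signal – adenylate kinase release luminescence · Read-out basis – lysis from increased AK signal · Benchmarks – Clomiphene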
# The depositor's hits bear a star; u = inconclusive; x = not tested or not shown; [ ] = another dose, or the depositor's remark.
1: COc1cccc(CN2CC(C(=O)N(C)Cc3ccc(C)cc3)CCC2=O)c1 (stereo not given)
2: O=C(C[n+]1ccccc1)N/N=C/c1cccs1
3: C[C@@H]1CN([C@@H](C)CO)C(=O)Cc2cc(NC(=O)CCN3CCOCC3)ccc2O[C@@H]1CN(C)S(=O)(=O)c1ccc(Cl)cc1
4: Cc1nn(C)c(C(=O)NNC(=S)Nc2ccc(F)cc2)c1[N+](=O)[O-]
5: O=S(=O)(Nc1cccc(-n2cnnn2)c1)c1ccccc1
entry no.	1	2	3	4	5
HIV Env fusion	58.2*	0.0	-26.4[16.7 µM]	-23.7	-4.2
PGC1a acetyl inh	x	x	19.0	-9.4	7.0
miR122 inh	-5.2	x	5.2[16.7 µM]	1.9	12.8
FN deposit inh	-2.4	-5.1	x	0.7	6.0
Cneo AK release	0.0	x	-3.1	4.9	0.7
Yeast UUG start	-4.5	x	9.8	-0.1	-21.0

6: O=S(=O)(Nc1cccc(-n2cnnn2)c1)c1cc(Br)ccc1Br
7: COCCn1c(=S)[nH]c2cc(C(=O)NC(C)C)ccc2c1=O
8: O=S1(=O)N[C@H](Cc2ccccc2)COc2cccc(F)c21
9: O=S1(=O)N[C@H](Cc2ccccc2)COc2cccc(N3CCCC3)c21
10: c1ccc(N2CCN(c3ccccc3)C2c2ccncc2)cc1
entry no.	6	7	8	9	10
HIV Env fusion	3.8	-35.2	56.8*	-20.7	x
PGC1a acetyl inh	-4.8	-4.4	x	x	91.3*
miR122 inh	108.4*	-5.4	x	x	0.0
FN deposit inh	-0.5	-9.4	-8.8	5.1	x
Cneo AK release	2.4	0.6	x	x	-2.7
Yeast UUG start	-7.9	-6.7	x	x	-5.4

11: c1ccc(N2CCN(c3ccccc3)C2c2cccnc2)cc1
12: O=S(=O)(N[C@@H]1CC[C@H](CCn2cc(-c3cccnc3)nn2)O[C@H]1CO)c1ccc(F)cc1
13: N#Cc1ccc(NC(=O)Nc2cccc(C#N)c2)cc1
14: N#Cc1ccc(NC(=O)Nc2ccc(Oc3ccc(NC(=O)Nc4ccc(C#N)cc4)cc3)cc2)cc1
15: O=C(Nc1cccc(S(=O)(=O)Nc2ccc(Cl)cc2)c1)c1ccccn1
entry no.	11	12	13	14	15
HIV Env fusion	x	-18.7[16.7 µM]	46.1	64.2*	x
PGC1a acetyl inh	-5.5	-1.8	x	-30.3	-0.3
miR122 inh	-2.5	x	x	-30.3	129.3*
FN deposit inh	x	x	-1.5	-10.8	-11.4
Cneo AK release	0.3	-4.5	x	-1.3	2.9
Yeast UUG start	-5.3	-11.2	x	-16.3	2.0

16: O=C1C=CC(=O)N1c1ccccc1N1C(=O)C=CC1=O
17: O=C1C=CC(=O)N1c1ccccn1
18: O=C(c1ccccc1)c1ccccc1N1C(=O)C=CC1=O
19: Cc1noc(C)c1CSCC(=O)Nc1nc(-c2ccc(F)c(F)c2)cs1
20: COc1ccc(-c2csc(NC(=O)CSCc3c(C)noc3C)n2)cc1OC
entry no.	16	17	18	19	20
HIV Env fusion	-64.7	-22.6	5.0	61.5*	-10.9
PGC1a acetyl inh	-39.4	2.8	-32.7	x	-3.7
miR122 inh	30.9	-2.4	x	x	-5.0
FN deposit inh	40.1*	x	57.8*	x	8.9
Cneo AK release	-0.5	-0.1	x	-1.1	-6.1
Yeast UUG start	-20.0	-2.5	x	-15.1	-10.5

# From compound 17 to 20, copied from above:
17: O=C1C=CC(=O)N1c1ccccn1
18: O=C(c1ccccc1)c1ccccc1N1C(=O)C=CC1=O
19: Cc1noc(C)c1CSCC(=O)Nc1nc(-c2ccc(F)c(F)c2)cs1
20: COc1ccc(-c2csc(NC(=O)CSCc3c(C)noc3C)n2)cc1OC
entry no.	17	18	19	20
HIV Env fusion	-22.6	5.0	61.5*	-10.9
PGC1a acetyl inh	2.8	-32.7	x	-3.7
miR122 inh	-2.4	x	x	-5.0
FN deposit inh	x	57.8*	x	8.9
Cneo AK release	-0.1	x	-1.1	-6.1
Yeast UUG start	-2.5	x	-15.1	-10.5

# The list goes on.
21: COc1ccccc1S(=O)(=O)N[C@H]1C=C[C@@H](CC(=O)N2CCCCC2)O[C@@H]1CO
22: O=C(c1ccc(C(F)(F)F)cc1)N(CCCn1ccnc1)C(c1ccccn1)c1nc2ccccc2[nH]1 (stereo not given)
23: O=C(c1ccccc1)N(CCCn1ccnc1)C(c1ccccc1)c1nc2ccccc2[nH]1 (stereo not given)
24: O=C(NCC1CCCO1)c1nc2c(nnn2Cc2ccc(F)cc2)c(=O)[nH]1 (stereo not given)
25: Cc1cc(Nc2cccc(Br)c2)c2ccccc2n1
entry no.	21	22	23	24	25
HIV Env fusion	17.8[16.7 µM]	64.7*	-33.5	-32.1	66.2*
PGC1a acetyl inh	-10.1	5.6	-14.0	1.2	-18.0
miR122 inh	x	4.5	4.6	x	x
FN deposit inh	x	-4.6	-1.1	x	1.8
Cneo AK release	2.0	-1.6	-0.7	-1.4	x
Yeast UUG start	x	-25.0	-11.6	-13.1	x

26: CCOC(=O)c1ccc(NC(=O)c2ccc(CN3CCc4ccccc4C3)cc2)cc1
27: O=C1C=C(c2cccc3c2oc2ccccc23)CCC1
28: CC1(C)CC(=O)C=C(c2cccc3c2oc2ccccc23)C1
29: CC(C)(C)OC(=O)N1CCC(C(=O)Nc2cccc(C(=O)NC3CC3)c2)CC1
30: CCC(=O)Nc1cccc(-c2ccc(N3CCC(C)CC3)nn2)c1
entry no.	26	27	28	29	30
HIV Env fusion	58.3*	u	72.5*	-33.9	16.4
PGC1a acetyl inh	x	x	-4.6	-1.3	x
miR122 inh	x	x	-8.0	-4.9	6.0
FN deposit inh	-6.2	6.8	-6.1	-2.7	5.3
Cneo AK release	-0.1	-0.6	-1.6	0.3	-5.8
Yeast UUG start	-2.2	7.2	13.7	-7.3	-63.5

31: O=C(Nc1cccc(-c2ccc(N3CCCCC3)nn2)c1)C(F)(F)F
32: CC1CCN(c2ccc(-c3cccc(NC(=O)C(F)(F)F)c3)nn2)CC1
33: Cc1c(C(=O)N2CCCC(C)C2)sc2ncnc(N3CCCCC3C)c12 (stereo not given)
34: CCCCCCSc1cccc(-c2nc3ccc(C)cn3c2NCc2ccccc2)c1
35: CCCC(=O)C1=C(O)C(C(=O)OC)C(C)(C)CC1=Nc1ccc(C)cc1 (stereo not given)
entry no.	31	32	33	34	35
HIV Env fusion	68.5*	79.6*	19.4	11.0	-28.2
PGC1a acetyl inh	4.1	x	-10.4	-17.5	x
miR122 inh	-9.9	-5.0	4.6	-3.4	x
FN deposit inh	8.5	6.0	-6.7	12.1	x
Cneo AK release	-18.2	-5.7	-6.4	3.0	x
Yeast UUG start	-23.4	-18.6	-8.4	-20.1	x

36: CCCC(=O)C1=C(O)C(C(=O)OC)C(C)(C)CC1=Nc1ccc(OC)cc1 (stereo not given)
37: COCCCNc1ccn2nc(-c3ccccc3)cc2n1
38: COCCCNc1ccn2nc(-c3cccc(Cl)c3)cc2n1
39: CCC(=O)c1ccc(OCC(=O)OCC(=O)c2cc(C)n(C3CC3)c2C)cc1
40: CCOc1ccccc1NC(=O)c1ccccc1N(C)S(C)(=O)=O
entry no.	36	37	38	39	40
HIV Env fusion	13.2	62.9*	-337.2	-19.8	x
PGC1a acetyl inh	46.2*	x	-1.3	x	3.1
miR122 inh	x	-6.6	x	x	4.5
FN deposit inh	-3.0	-7.7	3.4	-9.4	x
Cneo AK release	x	3.3	-9.4	x	2.0
Yeast UUG start	x	-66.2	-34.0	x	-7.9

41: CC(CC(=O)O)CC(=O)Nc1cc(C(F)(F)F)cc(C(F)(F)F)c1 (stereo not given)
42: CCC(C)(CC(=O)O)CC(=O)Nc1cc(C(F)(F)F)cc(C(F)(F)F)c1 (stereo not given)
43: CCOC(=O)C1CCN(C(=O)Cc2cccc3ccccc23)CC1
44: O=S(=O)(c1ccc(F)cc1)N(CCO)CC(O)Cn1c2ccccc2c2ccccc21 (stereo not given)
45: CCN(CC(O)Cn1c2ccccc2c2ccccc21)S(=O)(=O)c1ccc(F)cc1 (stereo not given)
entry no.	41	42	43	44	45
HIV Env fusion	2.9	9.7	x	66.0*	49.6
PGC1a acetyl inh	9.4	67.6*	4.3	-8.0	-17.6
miR122 inh	x	x	-4.2	5.5	-10.1
FN deposit inh	7.4	0.5	x	x	x
Cneo AK release	x	x	-2.5	8.7	2.1
Yeast UUG start	x	x	-15.3	-24.9	-13.6

46: Cc1nc(Nc2nc(CSc3ccc(Cl)cc3)cc(=O)[nH]2)nc2ccccc12
47: CCc1c(C)nc(Nc2nc(C)c3ccc(OC)cc3n2)[nH]c1=O
48: COc1ccc2c(C)nc(Nc3nc(C)c(C)c(=O)[nH]3)nc2c1
49: Cc1ccc2nc(Nc3nc(CSc4nnnn4-c4ccccc4)cc(=O)[nH]3)nc(C)c2c1
50: Cc1nc(Nc2nc(CSc3nc4ccccc4[nH]3)cc(=O)[nH]2)nc2ccccc12
entry no.	46	47	48	49	50
HIV Env fusion	-77.4	x	65.6*	-129.6	161.1*
PGC1a acetyl inh	x	10.0	11.4	3.8	x
miR122 inh	x	-4.9	4.7	-2.3	u
FN deposit inh	0.9	x	x	13.2	x
Cneo AK release	x	0.3	-1.6	-0.5	-3.7
Yeast UUG start	x	-6.0	-7.1	-5.2	-10.3
